{"source": "paper PMC10227131", "about": "(Pharmacological Reports, 2023)", "origin": "cited, not measured here", "test_system": "MOP receptor", "details": "inhibition of forskolin-stimulated cAMP formation, HEK cells stably expressing MOP receptor; ref Kuo et al. [36]; cited from earlier work", "excerpt": "| column: In vitro agonist or antagonist activity* / MOP receptor", "note": "Counter-ions that a name gives are not always drawn.", "data": [{"molecule": "CN1CC[C@]23c4c5ccc(O)c4O[C@H]2[C@@H](O)C=C[C@H]3[C@H]1C5", "note": "[morphine, morphine hydrochloride]", "values": [{"measurement": "In vitro agonist or antagonist activity, MOP receptor", "result": "Agonist^c"}]}]}
